Test results as given in PMC7761830, “Structure-Based Virtual Screening of Ultra-Large Library Yields Potent Antagonists for a Lipid GPCR” (Biomolecules, 2020).
Read-outs that look alike come from different tables or passages of the source.

Target: T1, wild-type CysLT1R (Homo sapiens, UniProt Q9Y271)
T1 construct: expressed in transfected cells; host or cells: HEK293 (ATCC CRL-1573), transient transfection with Lipofectamine 3000
T1 sequence (Q9Y271 1-337): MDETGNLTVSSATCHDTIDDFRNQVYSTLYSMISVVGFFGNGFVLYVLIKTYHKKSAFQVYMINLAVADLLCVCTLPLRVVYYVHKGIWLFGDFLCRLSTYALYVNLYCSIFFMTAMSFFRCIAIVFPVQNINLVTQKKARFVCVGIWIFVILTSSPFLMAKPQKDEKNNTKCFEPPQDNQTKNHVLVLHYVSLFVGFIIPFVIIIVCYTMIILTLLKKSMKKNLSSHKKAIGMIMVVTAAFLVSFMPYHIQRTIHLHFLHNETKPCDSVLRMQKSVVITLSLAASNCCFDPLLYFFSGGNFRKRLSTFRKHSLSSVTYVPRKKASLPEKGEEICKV
Assay: IP1 production assay, antagonist mode, co-stimulation with EC80 LTD4
Format: cell-based
Experimental: For this assay, we used the Cisbio IP-One kit as previously described. […] At 48 h post-transfection, the media was removed and the cells were washed with fresh Hank’s Balanced Salt Solution (HBSS). […] After compound stimulation, the cells were incubated for 1 h at 37 °C and stimulated with IP1-D2 and Ab-Crypt reagents in Lysis Buffer. The cells were then incubated at room temperature for an additional hour. […] Normalized data were plotted using either the three-parameter or four-parameter EC50/IC50 fits of GraphPad Prism 8 (San Diego). […] Data represent the means ± SEM of at least three independent experiments performed in quadruplicate.

remaining activity at 30 µM (read-out: CysLT1R, % IP1 production at 30 µM, Mean): 82.1%
remaining activity at 30 µM (read-out: CysLT1R, % IP1 production at 30 µM, mean): 82.1%
Compound: O=C(O)c1cc(S(=O)(=O)N2CC=C(c3ccccc3)CC2)ccc1O [BRI-12324]
